Measured values reported in US7211600B2, “Methods of modulating c-kit tyrosine protein kinase function with indolinone compounds” (Sugen Inc., priority 1999, dated 2007).

System: MO7E cells
Test: cells
Details: Homo sapiens, 48 h, read-out: IC50 value for inhibition of proliferation
Procedure: MO7E cells, a human myeloid leukemia cell line, were maintained in RPMI-1640 medium supplemented with 10% fetal calf serum and 10 ng/ml each IL-3 and GM-CSF.

Q: How did the IC50 turn out when `Cc1cc(C)c(/C=C2\C(=O)Nc3ccccc32)[nH]1` [Compound Eight] was run?
A: 500 to 1000 nM
